How the values were obtained:
[1] = target: 3',5'-cyclic-AMP phosphodiesterase 4D (Homo sapiens, UniProt Q08499)
[2] = target: Prostaglandin G/H synthase 1 (Homo sapiens, UniProt P23219)
P2Y purinoceptor 12 = P2Y purinoceptor 12 (Homo sapiens, UniProt Q9H244)
[3] = target: Sphingosine 1-phosphate receptor 1 (Homo sapiens, UniProt P21453)

Amino acid sequences for entries named in this document (tags omitted). A change or cut given only in a name is not applied to a line headed by its entry.
UniProt Q08499: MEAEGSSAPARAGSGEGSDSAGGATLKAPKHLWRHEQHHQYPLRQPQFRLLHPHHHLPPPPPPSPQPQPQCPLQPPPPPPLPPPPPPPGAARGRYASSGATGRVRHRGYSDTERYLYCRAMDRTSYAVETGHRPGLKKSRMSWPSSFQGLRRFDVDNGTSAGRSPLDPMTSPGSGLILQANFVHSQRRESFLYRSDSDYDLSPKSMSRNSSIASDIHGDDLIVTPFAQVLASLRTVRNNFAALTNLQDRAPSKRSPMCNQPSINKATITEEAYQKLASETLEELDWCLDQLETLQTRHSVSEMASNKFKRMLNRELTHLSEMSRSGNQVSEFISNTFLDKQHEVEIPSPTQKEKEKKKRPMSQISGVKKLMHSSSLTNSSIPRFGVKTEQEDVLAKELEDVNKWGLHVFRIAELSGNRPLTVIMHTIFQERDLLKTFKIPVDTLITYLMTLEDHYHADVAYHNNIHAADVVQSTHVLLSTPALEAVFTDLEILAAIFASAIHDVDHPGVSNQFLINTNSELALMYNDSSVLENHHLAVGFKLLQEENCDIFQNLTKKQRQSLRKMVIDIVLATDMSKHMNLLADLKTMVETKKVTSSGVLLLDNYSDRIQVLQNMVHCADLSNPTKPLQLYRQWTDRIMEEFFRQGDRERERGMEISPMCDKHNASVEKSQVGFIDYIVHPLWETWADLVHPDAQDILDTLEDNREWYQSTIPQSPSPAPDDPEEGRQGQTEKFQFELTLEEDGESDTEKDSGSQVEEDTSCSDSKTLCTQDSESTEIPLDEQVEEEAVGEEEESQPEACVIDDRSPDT
UniProt P23219, whole entry: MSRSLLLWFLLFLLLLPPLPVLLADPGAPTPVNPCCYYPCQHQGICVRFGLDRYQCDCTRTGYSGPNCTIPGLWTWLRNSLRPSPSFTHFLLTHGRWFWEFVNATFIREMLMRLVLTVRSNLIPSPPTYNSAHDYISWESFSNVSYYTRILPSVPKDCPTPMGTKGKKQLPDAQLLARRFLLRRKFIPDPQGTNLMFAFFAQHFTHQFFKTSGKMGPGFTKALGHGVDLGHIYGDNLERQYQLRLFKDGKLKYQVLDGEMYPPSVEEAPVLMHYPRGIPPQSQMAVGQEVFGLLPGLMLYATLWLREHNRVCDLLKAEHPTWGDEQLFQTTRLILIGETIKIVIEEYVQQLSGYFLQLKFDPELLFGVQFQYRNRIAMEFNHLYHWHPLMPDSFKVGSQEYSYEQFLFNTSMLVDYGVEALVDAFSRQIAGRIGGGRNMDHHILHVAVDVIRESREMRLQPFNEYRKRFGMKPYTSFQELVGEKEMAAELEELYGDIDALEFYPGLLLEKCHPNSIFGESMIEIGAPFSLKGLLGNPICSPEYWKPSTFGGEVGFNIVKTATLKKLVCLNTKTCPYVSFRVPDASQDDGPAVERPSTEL
UniProt Q9H244: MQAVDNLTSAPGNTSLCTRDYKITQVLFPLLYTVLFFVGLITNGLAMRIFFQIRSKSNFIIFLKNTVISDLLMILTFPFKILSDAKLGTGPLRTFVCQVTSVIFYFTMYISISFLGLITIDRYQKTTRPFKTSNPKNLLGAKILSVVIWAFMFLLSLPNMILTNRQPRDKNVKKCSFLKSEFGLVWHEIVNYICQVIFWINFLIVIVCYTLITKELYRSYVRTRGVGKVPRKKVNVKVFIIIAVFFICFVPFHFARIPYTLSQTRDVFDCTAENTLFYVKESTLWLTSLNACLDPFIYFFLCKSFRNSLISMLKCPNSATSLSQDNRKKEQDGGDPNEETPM
UniProt P21453, whole entry: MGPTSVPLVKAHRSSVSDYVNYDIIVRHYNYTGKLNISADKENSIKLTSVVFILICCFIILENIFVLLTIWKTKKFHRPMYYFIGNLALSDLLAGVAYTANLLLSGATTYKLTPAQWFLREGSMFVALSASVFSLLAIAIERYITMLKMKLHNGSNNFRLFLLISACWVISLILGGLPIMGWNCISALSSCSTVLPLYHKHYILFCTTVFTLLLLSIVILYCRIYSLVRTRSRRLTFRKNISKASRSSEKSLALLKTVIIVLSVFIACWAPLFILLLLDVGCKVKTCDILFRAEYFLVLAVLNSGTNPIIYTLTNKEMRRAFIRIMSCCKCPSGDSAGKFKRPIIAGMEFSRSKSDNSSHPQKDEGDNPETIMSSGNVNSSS

Row | SMILES | IC50 [1] | IC50 [2] | further results
1 | COc1ccc(-c2nc(O[11CH3])nn2-c2ccc(OC)cc2)cc1 | – | 5 nM | –
2 | CCOC(=O)c1cc(C#N)c(N2CC(N[11C](=O)NS(=O)(=O)c3ccc(Cl)s3)C2)nc1C | – | – | IC50 (P2Y purinoceptor 12): 6 nM
3 | COc1ccc(-n2nc(OCC(F)(F)F)nc2-c2ccc(O[11CH3])cc2)cc1 | – | 1 nM | –
4 | CCCCCCCCc1ccc(CCC(N)(CO)CO)cc1 [FINGOLIMOD] | – | – | IC50 [3]: 604 nM

Continued, in another order:

Row | IC50 [1] | SMILES | IC50 [2] | further results
5 | 5.12 nM | [11CH3]Oc1ccc(Cc2ccncc2)nc1-c1cccc(Cl)c1 | – | –
6 | 2.8 nM | [11CH3]Oc1ccc(Cc2ccncc2)nc1-c1cccc([N+](=O)[O-])c1 | – | –

— ChEMBL document CHEMBL5150013, “The Repertoire of Small-Molecule PET Probes for Neuroinflammation Imaging: Challenges and Opportunities beyond TSPO” (J Med Chem, 2021)
